## Ab-14 heavy chain CDR variants: yeast mating affinities

Values reported by Li et al. 2023, doi:10.1038/s41467-023-39022-2 (FLAb copy).

The target is the same throughout: PDVDLGDISGINAS, from the HR2 region of SARS-CoV-2 spike.

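The variants were designed computationally from a first round of random CDR variants and then made and measured. Their group label is 14H_En_HC (En: ensemble of fine-tuned language models; HC: hill climbing; a sequence that several methods proposed may carry one label only). Affinity was read by AlphaSeq, a pooled yeast mating assay with surface-displayed partners. The frequency of each diploid, read from paired DNA barcodes, reflects how well the two displayed proteins bind. A regression on co-assayed BCL2-family reference pairs converts the normalised counts of each replicate to an apparent Kd. There are six technical replicates.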

The variants keep the light chain, the linker and the frameworks of Ab-14 (scFv order VH, a 15-residue (Gly4Ser)3 linker, VL).
VH: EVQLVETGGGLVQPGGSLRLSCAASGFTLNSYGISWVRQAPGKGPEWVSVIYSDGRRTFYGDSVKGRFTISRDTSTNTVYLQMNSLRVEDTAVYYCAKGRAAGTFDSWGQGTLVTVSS
VL: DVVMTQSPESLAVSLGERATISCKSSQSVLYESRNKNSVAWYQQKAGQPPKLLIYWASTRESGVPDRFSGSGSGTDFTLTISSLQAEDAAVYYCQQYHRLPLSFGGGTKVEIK

Sequences are complete VH domains. The read-out is the apparent dissociation constant on a log10 scale (nM): the lower, the stronger. An entry "ND" has no value in the source: the pair was not observed among the diploids in that replicate. This suggests poor binding but is not conclusive.

VH,log10 Kd (nM) by replicate,control signals
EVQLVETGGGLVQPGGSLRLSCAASGFDLNEYGISWVRQAPGKGPEWVSVIYADGRRTFYADSVKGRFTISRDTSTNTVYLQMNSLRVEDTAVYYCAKGGNAGTFDVWGQGTLVTVSS,-0.07 -0.17 -0.22 -0.58 -0.28 0.05,0 of 18
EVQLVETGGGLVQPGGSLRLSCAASGFDLNEYGISWVRQAPGKGPEWVSVIYADGMRTFYADSVKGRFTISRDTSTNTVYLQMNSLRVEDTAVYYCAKGQLAGTFDQWGQGTLVTVSS,0.02 -0.24 -0.05 -0.30 -0.01 -0.04,0 of 18
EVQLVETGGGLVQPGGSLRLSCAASGFDLNEYGISWVRQAPGKGPEWVSVIYADGRRTFYADSVKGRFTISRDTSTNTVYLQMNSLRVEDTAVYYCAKGNTAGTFDTWGQGTLVTVSS,-0.89 -0.39 -0.33 -0.52 -0.37 0.34,0 of 18
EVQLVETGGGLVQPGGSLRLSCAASGFDLNEYGISWVRQAPGKGPEWVSVIYADGRRTQYIDSVKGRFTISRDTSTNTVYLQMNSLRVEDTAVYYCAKGNVAGTFDEWGQGTLVTVSS,0.05 0.02 ND ND -0.41 0.87,0 of 18
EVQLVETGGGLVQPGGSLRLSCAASGFDLNEYGISWVRQAPGKGPEWVSVIYADGRRTYYQDSVKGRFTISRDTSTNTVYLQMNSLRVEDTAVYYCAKGEIAGTFDQWGQGTLVTVSS,-0.53 -0.63 -0.31 -0.54 -0.76 -0.57,0 of 18
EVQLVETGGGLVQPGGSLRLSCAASGFDLNEYGISWVRQAPGKGPEWVSVIYADGMRTFYADSVKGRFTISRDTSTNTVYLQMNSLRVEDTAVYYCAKGKNAGTILVWGQGTLVTVSS,ND ND ND ND ND ND,1 of 18 (0.43)
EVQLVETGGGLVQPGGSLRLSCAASGFDLSEYGISWVRQAPGKGPEWVSVIYADGKRTFYTDSVKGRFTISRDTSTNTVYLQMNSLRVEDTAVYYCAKGEVAGTFDVWGQGTLVTVSS,0.00 -0.50 -0.20 -0.62 -0.08 -0.50,0 of 18
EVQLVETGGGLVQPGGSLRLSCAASGFDLEEYGISWVRQAPGKGPEWVSVIYADGRRTAYIDSVKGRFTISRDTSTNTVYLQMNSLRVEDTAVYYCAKGEAAGTFDSWGQGTLVTVSS,-0.06 -0.45 -0.41 -0.30 -0.61 -0.27,1 of 18 (0.86)
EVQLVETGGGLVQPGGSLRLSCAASGFDLDEYGISWVRQAPGKGPEWVSVIYADGRRTFYADSVKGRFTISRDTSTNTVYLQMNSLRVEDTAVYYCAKGTEAGTFDLWGQGTLVTVSS,-0.21 -0.23 -0.01 0.01 -0.54 -0.08,1 of 18 (1.27)
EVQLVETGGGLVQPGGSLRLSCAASGFDLDEYGISWVRQAPGKGPEWVSVIYADGMRTFYTDSVKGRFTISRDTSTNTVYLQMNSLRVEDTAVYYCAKGEAAGTFDMWGQGTLVTVSS,0.30 0.17 0.06 -0.16 -0.33 0.32,0 of 18
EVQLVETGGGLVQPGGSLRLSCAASGFDLNEYGISWVRQAPGKGPEWVSVIYADGRRTQYIDSVKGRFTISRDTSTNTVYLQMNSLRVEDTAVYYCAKGEIAGTFDAWGQGTLVTVSS,-0.80 -0.12 -0.41 -0.62 -0.05 -0.36,0 of 18
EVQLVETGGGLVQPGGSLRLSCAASGFNLDEYGISWVRQAPGKGPEWVSVIYADGRRTFYSDDVKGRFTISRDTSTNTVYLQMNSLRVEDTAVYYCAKGEAAGTFDIWGQGTLVTVSS,0.17 -0.47 -0.61 -0.34 -0.32 -0.14,0 of 18
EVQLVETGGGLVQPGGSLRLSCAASGFDLNEYGISWVRQAPGKGPEWVSVIYADGRRTFYADSVKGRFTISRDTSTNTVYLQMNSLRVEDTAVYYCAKGAVAGTFDKWGQGTLVTVSS,-0.64 -0.18 -0.83 -1.03 -1.19 -1.26,0 of 18
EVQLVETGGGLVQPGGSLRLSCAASGFDLDEYGISWVRQAPGKGPEWVSVIYADGRRTFYVDSVKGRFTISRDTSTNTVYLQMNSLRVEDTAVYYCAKGQNAGTFDQWGQGTLVTVSS,0.66 0.45 0.06 -0.45 -0.12 0.09,0 of 18
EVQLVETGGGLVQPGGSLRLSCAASGFDLNEYGISWVRQAPGKGPEWVSVIYADGRRTAYADSVKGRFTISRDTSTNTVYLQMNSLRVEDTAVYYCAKGEAAGTFDDWGQGTLVTVSS,0.06 -0.20 -0.64 -0.22 -0.29 -0.26,0 of 18
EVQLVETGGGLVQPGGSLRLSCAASGFDLNEYGISWVRQAPGKGPEWVSVIYADGKRTFYADSVKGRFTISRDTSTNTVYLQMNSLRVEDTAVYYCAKGQTAGTFDVWGQGTLVTVSS,-0.34 -0.53 -0.64 -0.81 -0.75 -0.48,2 of 18 (2.68)
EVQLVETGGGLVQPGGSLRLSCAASGFDLNEYGISWVRQAPGKGPEWVSVIYADGTRTAYIDSVKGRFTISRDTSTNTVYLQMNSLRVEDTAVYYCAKGNNAGTFDVWGQGTLVTVSS,ND 1.22 ND 1.72 0.69 3.29,0 of 18
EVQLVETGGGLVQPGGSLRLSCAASGFDLNEYGISWVRQAPGKGPEWVSVIYADGRRTFYADSVKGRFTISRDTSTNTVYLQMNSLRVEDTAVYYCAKGNQAGTFIQWGQGTLVTVSS,1.21 2.78 1.08 0.14 0.51 1.05,0 of 18
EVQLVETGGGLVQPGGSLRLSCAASGFNLDEYGISWVRQAPGKGPEWVSVIYADGRRTFYQDSVKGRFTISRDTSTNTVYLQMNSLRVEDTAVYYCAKGEVAGTFDQWGQGTLVTVSS,-0.66 -0.99 -1.19 -1.37 -1.39 -0.01,0 of 18
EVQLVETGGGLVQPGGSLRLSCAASGFDLNEYGISWVRQAPGKGPEWVSVIYADGRRTFYTDSVKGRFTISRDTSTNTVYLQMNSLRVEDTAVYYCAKGSEAGTFNMWGQGTLVTVSS,-0.59 -0.62 -0.67 -0.72 -0.91 -0.55,3 of 18 (1.89)
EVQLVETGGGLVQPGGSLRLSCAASGFDLNEYGISWVRQAPGKGPEWVSVIYADGKRKFYADSVKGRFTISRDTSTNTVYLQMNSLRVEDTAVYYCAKGNTAGTFDVWGQGTLVTVSS,-0.24 -0.54 -0.41 -0.49 -0.64 -0.38,0 of 18
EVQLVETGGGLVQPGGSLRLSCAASGFDLNEYGISWVRQAPGKGPEWVSVIYADGQRTFYQDSVKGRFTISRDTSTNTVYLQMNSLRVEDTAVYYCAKGEIAGTFDQWGQGTLVTVSS,-0.22 -0.54 -0.64 -0.93 -0.68 -0.63,0 of 18
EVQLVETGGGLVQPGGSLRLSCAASGFDLNEYGISWVRQAPGKGPEWVSVIYADGQRSFYADSVKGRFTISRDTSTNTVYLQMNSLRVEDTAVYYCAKGQLAGTFDVWGQGTLVTVSS,-0.64 -0.83 -0.72 -0.79 -0.98 -0.79,0 of 18

Picked from the list: the 3 lowest averages where every replicate gave a value.

VH	log10 Kd (nM) by replicate	control signals
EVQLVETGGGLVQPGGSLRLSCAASGFNLDEYGISWVRQAPGKGPEWVSVIYADGRRTFYQDSVKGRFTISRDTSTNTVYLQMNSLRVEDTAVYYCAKGEVAGTFDQWGQGTLVTVSS	-0.66 -0.99 -1.19 -1.37 -1.39 -0.01	0 of 18
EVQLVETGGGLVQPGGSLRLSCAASGFDLNEYGISWVRQAPGKGPEWVSVIYADGRRTFYADSVKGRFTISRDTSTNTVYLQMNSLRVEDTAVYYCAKGAVAGTFDKWGQGTLVTVSS	-0.64 -0.18 -0.83 -1.03 -1.19 -1.26	0 of 18
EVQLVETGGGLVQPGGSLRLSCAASGFDLNEYGISWVRQAPGKGPEWVSVIYADGQRSFYADSVKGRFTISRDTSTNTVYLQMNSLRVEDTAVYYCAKGQLAGTFDVWGQGTLVTVSS	-0.64 -0.83 -0.72 -0.79 -0.98 -0.79	0 of 18

The parent sequence was in this pool as ten entries: three were never detected, three once, and four in most replicates, with averages from 0.34 to 2.37. A sequence measured in both rounds can read differently, since the two assays cover different ranges. Nonspecific signal, from three strains lacking the peptide, appeared in 1% of pairings of all heavy chain designs, centred on 2.08 (5% of these signals below 0.84); values are not corrected for it. The control count says in how many pairings with the empty strains this scFv gave a signal, with their mean in brackets. The authors' rule: three or more of the six replicates give a measured affinity, fewer mean a poor binder.